{"sequences": {"note": "By UniProt entry, the sequences of proteins in these tests, tags left out.", "UniProt A0A223PM17, entry or part of it I539V": "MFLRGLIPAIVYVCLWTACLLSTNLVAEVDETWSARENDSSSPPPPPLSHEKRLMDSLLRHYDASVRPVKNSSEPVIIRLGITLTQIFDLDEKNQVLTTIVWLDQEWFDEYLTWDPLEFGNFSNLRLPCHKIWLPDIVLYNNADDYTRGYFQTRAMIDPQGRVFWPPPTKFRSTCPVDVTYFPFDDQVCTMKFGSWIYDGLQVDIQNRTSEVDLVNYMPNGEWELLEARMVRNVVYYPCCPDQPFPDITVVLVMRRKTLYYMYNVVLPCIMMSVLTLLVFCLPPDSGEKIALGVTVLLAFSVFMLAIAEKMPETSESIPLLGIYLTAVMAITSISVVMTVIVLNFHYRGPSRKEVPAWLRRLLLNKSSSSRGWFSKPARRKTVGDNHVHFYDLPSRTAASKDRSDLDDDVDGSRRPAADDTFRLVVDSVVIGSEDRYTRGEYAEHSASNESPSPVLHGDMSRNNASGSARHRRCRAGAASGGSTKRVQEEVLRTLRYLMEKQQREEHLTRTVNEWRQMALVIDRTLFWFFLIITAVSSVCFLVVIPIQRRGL"}, "source": "patent US12162913B2", "about": "“Rhipicephalus nicotinic acetylcholine receptor and pest control acting thereon” (priority 2016, dated 2024)", "key": {"[1]": {"target": "R. microplus nAChRα5 (Rmα5) homopentamers (Rhipicephalus microplus, UniProt A0A223PM17, I539V)", "type": "cell-based", "conditions": "Xenopus oocytes, membrane potential clamped at −60 mV, dose-response curve; read-out: EC50 (activation of Rmα5 receptor)", "method": "(§1) The plasmids containing the sequences of choice were linearized using BeuI (Spel) FastDigest (ThermoFisher) restriction enzyme for 30 min at 37°, and an aliquot run on an agarose gel to check for complete linearization. The plasmid DNA was phenol:chloroform purified and ethanol precipitated. The pellet was re-suspended in deionized water. Capped RNA was synthesized using mMessage mMachine T7 kit from 1 μg linearized plasmid DNA, the sample phenol:chloroform purified and isopropanol precipitated. The pellet was re-suspended in deionized water to a concentration of 500 ng/μl, analysed on an agarose gel for integrity and stored at −80° C. until further use.\n(§2) Xenopus laevis oocytes were purchased as whole ovaries from the European Xenopus Resource Centre (University of Portsmouth), delivered in less than 24 h in Modified Barth's Saline (MBS) on wet ice. Upon arrival, the oocytes were treated with 2 mg/ml collagenase type I (Sigma-Aldrich) in calcium-free Barth's solution (NaCl 88 mM, Tris-HCl 15 mM, NaHCO32.4 mM, MgCl2 0.82 mM, KCl 1 mM, pH 7.5) for 30 min at room temperature. […] Following ligand application, the current required to maintain the membrane potential at −60 mV was measured and used for subsequent data analysis. […]"}, "[2]": {"target": "R. microplus nAChRα6 (Rma6) homopentamers (Rhipicephalus microplus, UniProt A0A223PM23)", "assay": "Two-electrode voltage clamp on Xenopus oocytes expressing Rmα6 homopentamers", "type": "cell-based", "conditions": "15 s pre-application of spinosad followed by 3 s co-application of ACh (10 μM); read-out: provisional EC50 (effect on desensitization rate of ACh responses)", "method": "as §1, §2"}}, "data": [{"substance": "spinosad", "values": [{"measurement": "EC50", "setting": "[1]", "value": "9.39 ± 0.87", "unit": "µM"}, {"measurement": "EC50", "setting": "[2]", "value": 5.1, "unit": "µM"}]}]}
